AlphaSeq binding of Ab-14 light chain variants to a spike HR2 peptide

Reference: Engelhart et al. 2022, doi:10.1038/s41597-022-01779-4. File: FLAb, binding data.

The target is the same throughout: PDVDLGDISGINAS, from the HR2 region of SARS-CoV-2 spike.

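The parent was found by panning a naive human phage display library on the peptide. Library AAYL50 holds single substitutions and randomly drawn double and triple substitutions in the CDRs. In AlphaSeq, yeast of one mating type display the scFv and yeast of the other type display the target. Mating (16 h, 30 °C) was followed by selection of diploids and sequencing of their barcodes. The ratio of observed to expected reads was calibrated, replicate by replicate, on BCL2-family standards whose Kd was known from biolayer interferometry. There are three technical replicates.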

The variants keep the heavy chain, the linker and the frameworks of Ab-14 (scFv order VH, the linker GGGGSGGGGSGGGGS, VL).
VH: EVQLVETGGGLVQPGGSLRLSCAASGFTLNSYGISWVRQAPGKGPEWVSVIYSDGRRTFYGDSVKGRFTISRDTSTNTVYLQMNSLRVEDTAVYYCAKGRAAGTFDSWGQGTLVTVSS
VL: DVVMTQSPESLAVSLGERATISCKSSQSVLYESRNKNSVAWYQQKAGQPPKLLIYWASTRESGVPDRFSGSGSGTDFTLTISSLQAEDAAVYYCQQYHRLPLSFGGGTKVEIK

Positions count from residue 1 of the parent VL; S25I puts I in place of S.
The Kd shown is the geometric mean over detected replicates; a lower Kd is a better binder.
An entry "no signal" has no value in the source: the pair was not observed among the diploids in any replicate. This suggests poor binding but is not conclusive.
Empty control strains, which show no peptide, gave a signal in 18% of pairings with library AAYL50; the median was 15 µM and 95% of these signals were weaker than 970 nM. No background was subtracted.

| apparent Kd | seen in | changes |
|---|---|---|
| 950 pM | 3 of 3 | S25I/S28Q/T59H |
| 5.6 nM | 3 of 3 | H98N/P101L |
| no signal | 0 of 3 | S28T/A40V/S58P |
| no signal | 0 of 3 | S38H/R60P/Y97E |
| no signal | 0 of 3 | S38E/A40F/Q96C |
| 110 µM | 1 of 3 | Q27L/Q95Y/Y97G |
| no signal | 0 of 3 | L30H/R60Q/Y97Q |
| 32 nM | 3 of 3 | Y31Q/S62I/R99V |
| 5.1 nM | 3 of 3 | S25A/T59Q/Y97S |
| 720 nM | 1 of 3 | R60E/Q95R/Q96A |
| 83 nM | 3 of 3 | V29W/S33Y/S62C |
| 31 nM | 3 of 3 | S33V/S58D/E61M |
| 47 nM | 3 of 3 | R60L/L102M |
| 20 µM | 3 of 3 | V39T/R60I/L102M |
| 1.3 µM | 3 of 3 | K24V/L30H/Q96T |
| 7.7 µM | 2 of 3 | S38G/T59M/E61H |
| no signal | 0 of 3 | S26Y/E32D/Y97L |
| no signal | 0 of 3 | A40C/H98V/R99V |
| 19 nM | 3 of 3 | E32N/S62C |
| 34 µM | 1 of 3 | S33W/Q95I |
| 10 µM | 2 of 3 | Q96N/L100R/S103Y |
| 11 nM | 3 of 3 | S26R/K36L/T59M |
| 83 nM | 3 of 3 | S28A/Y97F |
| 25 nM | 3 of 3 | S62F/Y97W/L100Q |
| 270 nM | 3 of 3 | S25K/R34K |
| no signal | 0 of 3 | Q95T/H98R/S103N |
| no signal | 0 of 3 | S38H/P101N |
| 48 µM | 2 of 3 | V39N/L102W |
| 5.8 µM | 1 of 3 | K36C/S58H/Y97Q |
| 85 µM | 1 of 3 | R60A/Q95E/Y97M |
| no signal | 0 of 3 | S26L/S58K/R60D |
| no signal | 0 of 3 | S25F/S26M/S103V |
| no signal | 0 of 3 | S33I/N37W/R60I |
| 33 nM | 2 of 3 | N35R/S103M |
| no signal | 0 of 3 | K24P/Y31D/P101N |
| 120 nM | 3 of 3 | V29H/S33R/S58D |
| no signal | 0 of 3 | S33I/V39I/Y97D |
| 1.6 µM | 3 of 3 | K24T/K36R/L102Y |
| 35 nM | 3 of 3 | S25N/V29G/R60L |
| no signal | 0 of 3 | R60F/S103E |
| no signal | 0 of 3 | K24L/V39C/P101L |
| 92 nM | 3 of 3 | R34E/T59V/R60G |
| 1.9 nM | 3 of 3 | S28P/W56Q/T59H |
| 16 µM | 1 of 3 | Y31K/R99N/P101H |
| 1.6 µM | 3 of 3 | S26C/Q27K/L100S |
| no signal | 0 of 3 | V29S/L30F/Q95S |
| 8.6 nM | 3 of 3 | K24Y/R34M/S58E |
| no signal | 0 of 3 | E32C/T59H/L100F |
| no signal | 0 of 3 | R34S/S103L |
| 7.9 µM | 1 of 3 | K24F/R34T/T59R |
| 38 nM | 3 of 3 | K36Q/T59D/E61P |

Top 4 of the variants detected in all replicates, tightest first:

| changes | apparent Kd | seen in |
|---|---|---|
| S25I/S28Q/T59H | 950 pM | 3 of 3 |
| S28P/W56Q/T59H | 1.9 nM | 3 of 3 |
| S25A/T59Q/Y97S | 5.1 nM | 3 of 3 |
| H98N/P101L | 5.6 nM | 3 of 3 |